## Ab-14 heavy chain CDR variants: yeast mating affinities

Reference: Engelhart et al. 2022, doi:10.1038/s41597-022-01779-4. File: FLAb, binding data.

The target is the same throughout: PDVDLGDISGINAS, from the HR2 region of SARS-CoV-2 spike.

Ab-14 is the parent antibody, in scFv form: VH, then a 15-residue (Gly4Ser)3 linker, then VL. The light chain is unchanged in all variants.
VH: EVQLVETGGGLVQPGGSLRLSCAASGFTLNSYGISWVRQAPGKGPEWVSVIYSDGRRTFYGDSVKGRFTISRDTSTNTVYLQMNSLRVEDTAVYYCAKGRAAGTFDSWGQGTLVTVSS
VL: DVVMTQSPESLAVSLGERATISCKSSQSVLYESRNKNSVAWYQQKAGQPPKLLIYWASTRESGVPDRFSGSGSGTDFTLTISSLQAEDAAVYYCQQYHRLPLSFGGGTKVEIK

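The starting antibody came from a phage panning campaign against this peptide. The library (AAYL49) carries one to three amino acid substitutions per variant, with no insertions or deletions. AlphaSeq pools MATa yeast showing the antibodies with MATalpha yeast showing the peptide. Binding brings cells together so that they mate, and sequencing counts the barcode pairs among the diploids. Each replicate has its own calibration line, from reference interactions of the BCL2 family. There are three technical replicates.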

Substitutions are numbered in sequence along the VH above, starting at 1 (not Kabat). Affinities are written as log10 Kd with Kd in nM; a lower number is a better binder. A mean of the replicates is given; it leaves out those without a signal. A pair that was not seen in that replicate is written "nd"; this usually means weak binding, but a binder can also be missed.

changes	log10 Kd (nM) by replicate	mean, log10 nM	empty controls
S53Y R100E D106S	1.22 / 0.95 / 1.63	1.27	0/9
S35D A101R A102L	nd / 2.30 / 5.51	3.90	3/9 (3.56)
Y60M G103V S107R	nd / nd / nd	nd	0/9
I34G G61N F105N	nd / nd / nd	nd	0/9
S31G D54N G61V	nd / nd / nd	nd	0/9
N30Q A101P F105T	nd / nd / nd	nd	0/9
F27E S35E R56M	nd / nd / nd	nd	1/9 (3.00)
Y52R G99H	nd / nd / nd	nd	1/9 (2.27)
I51D F105Y	nd / nd / nd	nd	0/9
R56M R100C	4.33 / 3.78 / nd	4.05	5/9 (4.48)
S35R Y52C V64H	nd / 2.75 / 5.74	4.25	3/9 (4.02)
S53R F59L D62Q	nd / 3.06 / nd	3.06	2/9 (2.92)
G26S G103I F105C	nd / nd / nd	nd	0/9
I34G G61P G99T	nd / nd / nd	nd	0/9
N30G Y52M	nd / nd / nd	nd	2/9 (2.82)
F59Q V64K	nd / nd / nd	nd	1/9 (2.88)
R100N T104F F105W	nd / 4.88 / nd	4.88	4/9 (3.83)
G33L D54C D62M	nd / nd / nd	nd	0/9
N30I S53Q A102N	nd / nd / nd	nd	0/9
G55I D62M F105G	nd / nd / nd	nd	0/9
L29A F105A	4.19 / nd / 3.41	3.80	1/9 (3.41)
Y32Q Y52M T58N	nd / nd / nd	nd	0/9
S31Y R57G T58H	nd / 3.40 / nd	3.40	1/9 (2.62)
S31F Y32W	nd / 3.01 / nd	3.01	0/9
I51V Y60C G61E	2.94 / nd / 2.78	2.86	2/9 (3.38)
R57E F59W D62M	nd / nd / nd	nd	0/9
N30S D54S D106L	2.93 / nd / nd	2.93	1/9 (3.73)
T28H Y52D D54M	nd / nd / nd	nd	1/9 (2.58)
V50M G61T F105W	nd / 4.08 / nd	4.08	0/9
V50Y G61Y V64K	nd / nd / nd	nd	1/9 (4.08)

The first 4 variants above that were never detected:

changes	log10 Kd (nM) by replicate	mean, log10 nM	empty controls
Y60M G103V S107R	nd / nd / nd	nd	0/9
I34G G61N F105N	nd / nd / nd	nd	0/9
S31G D54N G61V	nd / nd / nd	nd	0/9
N30Q A101P F105T	nd / nd / nd	nd	0/9

As a blank, each scFv also met three strains without target: over library AAYL49, 15% of these pairings were detected, typically at 4.06 and seldom below 2.83. For each scFv, signals with the empty controls are counted beside the result, with their mean in brackets.